“Also recorded” adds a separate entry of the source.
Tested on: penicillin rat epilepsy model (high-amplitude electric discharges, HAED)
Experiment: Penicillin model of epilepsy: effect on the electrical activity of the brain
Format: in vivo
Conditions: sodium valproate 600 mg/kg ip, rats
Description: Experiments were carried out on male Wistar rats with a body weight of 180-250 g. Under isoflurane anesthesia (1.5%), surgical preparation for the experiment is performed. Urethane ([…]) is used for anesthesia during the experiment. Next, the animal is fixed in a stereotactic installation. 2×2 mm holes are drilled in the skulls of animals over symmetrical areas of the sensorimotor cortex of the brain and a 16-channel silicon-based probe (Neuronexus) is installed with a step of 100 μm between the recording electrodes to divert electrical activity from these areas. A silver chloride electrode, which serves as a combined ground electrode and a reference electrode, is introduced into the cerebellum or the visual cortex to a depth of 2-3 mm. To create a focus of epileptic activity in parallel to the somatosensory zones, 2×2 mm holes are drilled in the area of the visual cortex, into which 10 μl of a solution of sodium salt of benzylpenicillin are applied at a concentration of 40,000 IU/ml. […] The amplitude-frequency characteristics of epileptiform activity are evaluated. As a comparison substance, sodium valproate 600 mg/kg is used, which is administered ip in the presence of stable epileptiform activity. […] The significance of differences between populations is evaluated by the Mann-Whitney U-test. […]

SMILES: CCCC(CCC)C(=O)[O-].[Na+] [sodium valproate]
- suppression of HAED: does not completely suppress HAED; also recorded: does not lead to a complete suppression of HAED

— patent US10844018B2, “Pyridoxine derivative for treatment of epilepsy” (AO “TATKHIMFARMPREPARATY”, priority 2017, dated 2020)
